Biological target: FLAG-tagged PDE2A1 (amino acids 2-941) (Homo sapiens (Human), UniProt O00408)
Test: IMAP TR-FRET PDE2A phosphodiesterase enzymatic assay
Details: not given

By UniProt entry, the sequences of proteins in these tests, tags left out. Residues count along the entry.
UniProt O00408, 2-941: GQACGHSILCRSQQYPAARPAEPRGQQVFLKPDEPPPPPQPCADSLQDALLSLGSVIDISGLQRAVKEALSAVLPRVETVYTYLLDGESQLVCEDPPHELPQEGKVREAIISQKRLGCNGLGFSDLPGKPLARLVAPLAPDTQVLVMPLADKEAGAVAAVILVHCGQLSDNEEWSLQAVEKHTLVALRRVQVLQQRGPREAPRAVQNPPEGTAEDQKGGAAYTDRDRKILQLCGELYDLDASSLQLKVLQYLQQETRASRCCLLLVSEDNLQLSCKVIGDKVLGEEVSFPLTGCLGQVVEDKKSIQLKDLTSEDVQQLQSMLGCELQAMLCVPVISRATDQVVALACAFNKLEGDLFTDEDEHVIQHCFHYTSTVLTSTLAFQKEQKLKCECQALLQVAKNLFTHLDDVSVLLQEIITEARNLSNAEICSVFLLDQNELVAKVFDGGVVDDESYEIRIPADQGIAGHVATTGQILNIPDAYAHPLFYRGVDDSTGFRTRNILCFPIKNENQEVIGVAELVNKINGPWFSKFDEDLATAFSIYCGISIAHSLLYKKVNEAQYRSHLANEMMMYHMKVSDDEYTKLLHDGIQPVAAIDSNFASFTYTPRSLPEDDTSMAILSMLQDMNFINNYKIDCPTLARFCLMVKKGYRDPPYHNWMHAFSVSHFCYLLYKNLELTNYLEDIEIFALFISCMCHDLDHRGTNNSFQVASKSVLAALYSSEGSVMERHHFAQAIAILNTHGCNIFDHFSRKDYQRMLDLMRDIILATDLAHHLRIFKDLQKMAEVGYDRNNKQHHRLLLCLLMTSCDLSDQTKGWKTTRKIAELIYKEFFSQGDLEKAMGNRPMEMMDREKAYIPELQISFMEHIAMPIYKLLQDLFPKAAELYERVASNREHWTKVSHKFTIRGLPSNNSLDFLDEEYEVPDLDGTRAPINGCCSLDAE

Compared with `Cc1cc(C2CCCN(Cc3ccc(Br)cc3F)C2)n2ncnc2n1` (stereo not shown) [Example 132, 1-[(4-Bromo-2-fluorophenyl)methyl]-3-{5-methyl-[1,2,4]triazolo[1,5-a]pyrimidin-7-yl}piperidine], `Cc1cc(C2CCCN(Cc3ccc(F)cc3Cl)C2)n2ncnc2n1` (stereo not shown) [Example 162, 1-[(2-Chloro-4-fluorophenyl)methyl]-3-{5-methyl-[1,2,4]triazolo[1,5-a]pyrimidin-7-yl}piperidine] is higher in IC50: 100 to 1000 nM for the first, 1000 to 10000 nM for the second.

`Cc1cc(C2CN(C(=O)c3ccc4c(c3)OCO4)CCO2)n2ncnc2n1` (stereo not shown) [Example 549, 4-(2H-1,3-Benzodioxole-5-carbonyl)-2-{5-methyl-[1,2,4]triazolo[1,5-a]pyrimidin-7-yl}morpholine] and `COc1c(C(=O)N2CCOC(c3cc(C)nc4ncnn34)C2)ccc2ccccc12` (stereo not shown) [Example 556, 4-(1-Methoxynaphthalene-2-carbonyl)-2-{5-methyl-[1,2,4]triazolo[1,5-a]pyrimidin-7-yl}morpholine] fall in the same range of IC50: 100 to 1000 nM for the first, 100 to 1000 nM for the second.

First: Cc1cc(C2CCCN(Cc3ccc(N(C)C)cc3)C2)n2ncnc2n1 (stereo not shown) [Example 90, N,N-Dimethyl-4-[(3-{5-methyl-[1,2,4]triazolo[1,5-a]pyrimidin-7-yl}piperidin-1-yl)methyl]aniline]
Second: Cc1cc([C@H]2CCCN(Cc3ccc4ccccc4c3)C2)n2ncnc2n1 (single isomer, unassigned) [Example 3]
The IC50 of the first is higher: > 10000 nM for the first, 100 to 1000 nM for the second. The second is the more potent here.

First: Cc1cccc(CN2CCCC(c3cc(C)nc4ncnn34)C2)n1 (stereo not shown) [Example 124, 2-Methyl-6-[(3-{5-methyl-[1,2,4]triazolo[1,5-a]pyrimidin-7-yl}piperidin-1-yl)methyl]pyridine]
Second: Cc1cc(C2CCCN(Cc3ccc(C)c(C#N)c3)C2)n2ncnc2n1 (stereo not shown) [Example 180, 2-Methyl-5-[(3-{5-methyl-[1,2,4]triazolo[1,5-a]pyrimidin-7-yl}piperidin-1-yl)methyl]benzonitrile]
The IC50 of the first is higher: 1000 to 10000 nM for the first, 100 to 1000 nM for the second.

Compared with `Cc1cc(C2CN(C(=O)c3ccc(C#N)cc3)CC(F)(F)C2)n2ncnc2n1` (stereo not shown) [Example 247, 4-[(3,3-Difluoro-5-{5-methyl-[1,2,4]triazolo[1,5-a]pyrimidin-7-yl}piperidin-1-yl)carbonyl]benzonitrile], `Cc1cc(C2CCCN(C(=O)c3nccc4ccccc34)C2)n2ncnc2n1` (stereo not shown) [Example 399, 1-[(3-{5-Methyl-[1,2,4]triazolo[1,5-a]pyrimidin-7-yl}piperidin-1-yl)carbonyl]isoquinoline] is higher in IC50: 1000 to 10000 nM for the first, > 10000 nM for the second.

First: Cc1cc(C2CCCN(Cc3ccc(-c4ccc(F)cc4Cl)cc3)C2)n2ncnc2n1 (stereo not shown) [Example 19, 1-{[4-(2-Chloro-4-fluorophenyl)phenyl]methyl}-3-{5-methyl-[1,2,4]triazolo[1,5-a]pyrimidin-7-yl}piperidine]
Second: Cc1cc(C2CCCN(Cc3cc(F)c(F)c(F)c3)C2)n2ncnc2n1 (stereo not shown) [Example 187, 3-{5-Methyl-[1,2,4]triazolo[1,5-a]pyrimidin-7-yl}-1-[(3,4,5-trifluorophenyl)methyl]piperidine]
The IC50 of the first is higher: 1000 to 10000 nM for the first, 100 to 1000 nM for the second. The second is the more potent here.

Same assay, conditions: IMAP TR-FRET, 200 nM FAM-cAMP substrate, 11-point half-log dose-response

For `Cc1cc([C@H]2CCCN(Cc3ccc(Br)cc3)C2)n2ncnc2n1` [Example 134, (3S)-1-[(4-Bromophenyl)methyl]-3-{5-methyl-[1,2,4]triazolo[1,5-a]pyrimidin-7-yl}piperidine], the “PDE2 (pIC50)” value was >7.
`Cc1cc(C2CN(C(=O)c3ccc4nccn4c3)CC(F)(F)C2)n2ncnc2n1` (stereo not shown) [Example 507, 3,3-Difluoro-1-{imidazo[1,2-a]pyridine-6-carbonyl}-5-{5-methyl-[1,2,4]triazolo[1,5-a]pyrimidin-7-yl}piperidine] was tested, and the “PDE2 (pIC50)” value was >7.
`Cc1cc(C2CCCN(C(=O)c3ccc4sccc4c3)C2)n2ncnc2n1` (stereo not shown) [Example 452, 1-[(1-Benzothiophen-5-yl)carbonyl]-3-{5-methyl-[1,2,4]triazolo[1,5-a]pyrimidin-7-yl}piperidine] was tested, and the “PDE2 (pIC50)” value was >7.
For `Cc1cc(C2CCCN(C(=O)c3ccc4ccncc4c3)C2)n2ncnc2n1` (stereo not shown) [Example 397, 7-[(3-{5-Methyl-[1,2,4]triazolo[1,5-a]pyrimidin-7-yl}piperidin-1-yl)carbonyl]isoquinoline], the “PDE2 (pIC50)” value was >7.

Reference: patent US11186582B2, “Substituted [1,2,4]triazolo[1,5-a]pyrimidin-7-yl compounds as PDE2 inhibitors” (DART NEUROSCIENCE (CAYMAN) LTD., priority 2014, dated 2021)
